The target of this experiment is T1, human natriuretic peptide receptor 2 (hNPR2) (Homo sapiens, UniProt P20594).
T1 construct: expressed in transfected cells; host or cells: HEK293 (ATCC CRL-1573), clone 35, co-transfected with pGloSensor-42F
T1 sequence (P20594 23-1047): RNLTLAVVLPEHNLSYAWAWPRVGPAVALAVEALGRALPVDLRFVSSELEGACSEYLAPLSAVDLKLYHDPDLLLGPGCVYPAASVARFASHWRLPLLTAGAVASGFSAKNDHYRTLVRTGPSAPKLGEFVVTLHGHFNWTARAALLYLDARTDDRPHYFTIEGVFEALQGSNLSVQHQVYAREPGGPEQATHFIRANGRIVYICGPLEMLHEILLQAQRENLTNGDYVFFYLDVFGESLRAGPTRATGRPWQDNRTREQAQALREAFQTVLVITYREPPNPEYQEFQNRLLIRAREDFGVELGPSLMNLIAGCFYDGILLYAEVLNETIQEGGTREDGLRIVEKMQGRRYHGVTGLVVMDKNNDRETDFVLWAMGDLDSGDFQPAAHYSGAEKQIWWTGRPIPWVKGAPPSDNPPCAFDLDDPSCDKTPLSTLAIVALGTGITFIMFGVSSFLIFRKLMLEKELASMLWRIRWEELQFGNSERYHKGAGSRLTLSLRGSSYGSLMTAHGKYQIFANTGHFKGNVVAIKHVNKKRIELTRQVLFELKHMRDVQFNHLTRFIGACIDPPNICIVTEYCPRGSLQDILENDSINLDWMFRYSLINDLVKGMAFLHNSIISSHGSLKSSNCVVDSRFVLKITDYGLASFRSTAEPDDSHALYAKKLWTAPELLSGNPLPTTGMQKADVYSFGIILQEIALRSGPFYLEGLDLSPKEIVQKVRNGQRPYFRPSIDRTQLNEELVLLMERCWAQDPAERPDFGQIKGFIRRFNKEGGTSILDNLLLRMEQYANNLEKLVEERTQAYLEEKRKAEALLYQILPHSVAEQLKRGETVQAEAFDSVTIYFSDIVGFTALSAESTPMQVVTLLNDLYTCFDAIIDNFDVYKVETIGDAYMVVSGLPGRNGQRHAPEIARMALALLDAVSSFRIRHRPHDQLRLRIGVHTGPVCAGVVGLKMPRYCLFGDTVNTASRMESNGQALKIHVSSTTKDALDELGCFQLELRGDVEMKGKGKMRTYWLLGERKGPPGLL
In words: In vitro hNPR2 activity assay (cGMP GloSensor reporter, HEK293). To be noted: potency relative to CNP22 (0065). Format: cell-based. Here is the method: To evaluate the in vitro activity of CNP22 (0065; Chem. 1) and CNP compounds of the invention, they were tested for their ability to induce production of cyclic guanosine monophosphate (cGMP) in reporter cells expressing the human natriuretic peptide receptor 2 (hNPR2).
Cell culture: To produce the reporter cell line, HEK293 (ATCC® CRL-1573™) cells were stably transfected with the pGloSensor-42F reporter plasmid (GloSensor cGMP reporter—luciferase, Promega) and an expression plasmid encoding the hNPR2 receptor. A single cell clone was isolated for the reporter cell line. When reporter cells are exposed to an hNPR2 activating compound, hNPR2 cause production of cGMP. […] Active GloSensor luciferase is able to convert luciferin to oxyluciferin, a process that produces bioluminescence. Upon cell lysis and supply of luciferase substrate, luciferase activity can be quantified by detection of luminescence. Therefore, addition of an hNPR2 activating compound and subsequent addition of detection reagent to reporter cells causes generation of luminescence in a dose dependent manner. […] This measure, also referred to as in vitro potency, is reported for all compounds tested. In all the in vitro activity experiments, CNP22 was used as a positive in-plate control for hNPR2 activation. To reduce inter-assay variation, we also report the potency of each compound relative to the potency of the CNP22 control on each plate.
Procedure: HEK293-hNPR2/GloSensor clone 35 cells were continuously cultured in selection medium (DMEM containing 10% FCS, 1% P/S, 200 μg/mL G418 and 100 μg/mL hygromycin). To perform the assay, cells were detached with TrypLE Express (Gibco #12604013), put through a 70 μm cell strainer, counted and seeded in 30 μL/well assay medium (DMEM without phenol red and with 1% P/S) at 10,000 cells/well in white 384-well plates (Perkin Elmer #6007680) overnight. The following day, test compounds were serial diluted in dilution medium (DMEM without phenol red containing 1% OVA (Sigma #A5505 lot 04M7001V), 0.01% Tween20 (Roche #33766700) and 1% P/S) and 10 μL/well of diluted test compounds were subsequently added to the cells. For each compound, ten different concentrations in the range 0.25 μM-10 μM were tested. After 30 min of incubation at 37° C. and 5% CO2, 40 μL/well Bright-Glo detection reagent (Promega #E2650) was added. […] To determine the in vitro potency or EC50 of each test compound, a four parameter logistic regression was done on the raw data for each test compound using the Python package SciPy optimize. The average EC50 values are listed as “hNPR2 0% HSA. [EC50 (nM)]” in Table 2. A relative potency was calculated by the following expression: EC50 (CNP22 in-plate control)/EC50 (test compound)*100, shown as “hNPR2 0% HSA. [EC50% rel CNP]” in Table 2. A minimum of two replicates was measured for each test compound.
For `CCCC[C@@H]1NC(=O)[C@H](CO)NC(=O)CNC(=O)[C@H]([C@@H](C)CC)NC(=O)[C@H](CCCNC(=N)N)NC(=O)[C@H](CC(=O)O)NC(=O)[C@H](CC(C)C)NC(=O)[C@H](CCCCN)NC(=O)[C@H](CC(C)C)NC(=O)CNC(=O)[C@H](Cc2ccccc2)NC(=O)[C@@H](NC(=O)CNC(=O)[C@H](CCCCN)NC(=O)[C@H](CO)NC(=O)[C@H](CC(C)C)NC(=O)CNC(=O)[C@H](CCCCN)NC(=O)[C@H](CCCCN)NC(=O)[C@H](CC(N)=O)NC(=O)[C@H](C)NC(=O)CNC(=O)[C@H](CCCCN)NC(=O)[C@H](Cc2ccc(O)cc2)NC(=O)CC[C@H](NC(=O)CC[C@H](NC(=O)CC[C@H](NC(=O)CC[C@H](NC(=O)CC[C@H](NC(=O)CC[C@H](NC(=O)CCCCCCCCCCCCCCCCC(=O)O)C(=O)O)C(=O)O)C(=O)O)C(=O)O)C(=O)O)C(=O)O)CSSC[C@@H](C(=O)O)NC(=O)CNC(=O)[C@H](CC(C)C)NC(=O)CNC(=O)[C@H](CO)NC1=O` [compound 0262], the “hNPR2 0% HSA. [EC50% rel CNP]” value was 1.8%. To `CCCC[C@@H]1NC(=O)[C@H](CO)NC(=O)CNC(=O)[C@H]([C@@H](C)CC)NC(=O)[C@H](CCCNC(=N)N)NC(=O)[C@H](CC(=O)O)NC(=O)[C@H](CC(C)C)NC(=O)[C@H](CCCCN)NC(=O)[C@H](CC(C)C)NC(=O)CNC(=O)[C@H](Cc2ccccc2)NC(=O)[C@@H](NC(=O)CNC(=O)[C@H](CO)NC(=O)[C@H](CO)NC(=O)[C@H](CC(C)C)NC(=O)CNC(=O)[C@H](CO)NC(=O)[C@H](CCCCN)NC(=O)[C@H](CC(N)=O)NC(=O)[C@H](C)NC(=O)CNC(=O)[C@H](CCCCN)NC(=O)[C@H](Cc2ccc(O)cc2)NC(=O)[C@H](CCCCN)NC(=O)[C@H](CCCNC(=N)N)NC(=O)[C@H](C)NC(=O)[C@H](CC(N)=O)NC(=O)CC[C@H](NC(=O)CC[C@H](NC(=O)CC[C@H](NC(=O)CC[C@H](NC(=O)CC[C@H](NC(=O)CC[C@H](NC(=O)CCCCCCCCCCCCCCCCC(=O)O)C(=O)O)C(=O)O)C(=O)O)C(=O)O)C(=O)O)C(=O)O)CSSC[C@@H](C(=O)O)NC(=O)CNC(=O)[C@H](CC(C)C)NC(=O)CNC(=O)[C@H](CO)NC1=O` [compound 0296] belongs 3.6%; to `CCCC[C@@H]1NC(=O)[C@H](CO)NC(=O)CNC(=O)[C@H]([C@@H](C)CC)NC(=O)[C@H](CCCNC(=N)N)NC(=O)[C@H](CC(=O)O)NC(=O)[C@H](CC(C)C)NC(=O)[C@H](CCCCN)NC(=O)[C@H](CC(C)C)NC(=O)CNC(=O)[C@H](Cc2ccccc2)NC(=O)[C@@H](NC(=O)CNC(=O)[C@H](CCCCN)NC(=O)[C@H](CO)NC(=O)[C@H](CC(C)C)NC(=O)CNC(=O)[C@H](CCCCN)NC(=O)[C@H](CCCCN)NC(=O)[C@H](CC(N)=O)NC(=O)[C@H](C)NC(=O)CNC(=O)CC[C@H](NC(=O)CC[C@H](NC(=O)CC[C@H](NC(=O)CC[C@H](NC(=O)CC[C@H](NC(=O)CCCCCCCCCCCCCCCCC(=O)O)C(=O)O)C(=O)O)C(=O)O)C(=O)O)C(=O)O)CSSC[C@@H](C(=O)O)NC(=O)CNC(=O)[C@H](CC(C)C)NC(=O)CNC(=O)[C@H](CO)NC1=O` [compound 0313], 0.7%. Take `CCCC[C@@H]1NC(=O)[C@H](CO)NC(=O)CNC(=O)[C@H]([C@@H](C)CC)NC(=O)[C@H](CCCNC(=N)N)NC(=O)[C@H](CC(=O)O)NC(=O)[C@H](CC(C)C)NC(=O)[C@H](CCCCN)NC(=O)[C@H](CC(C)C)NC(=O)CNC(=O)[C@H](Cc2ccccc2)NC(=O)[C@@H](NC(=O)CNC(=O)[C@H](CCCCN)NC(=O)[C@H](CO)NC(=O)[C@H](CC(C)C)NC(=O)CNC(=O)[C@H](CCCCN)NC(=O)[C@H](CCCCN)NC(=O)[C@H](CCC(N)=O)NC(=O)[C@H](C)NC(=O)CNC(=O)CC[C@H](NC(=O)CC[C@H](NC(=O)CC[C@H](NC(=O)CC[C@H](NC(=O)CC[C@H](NC(=O)CCCCCCCCCCCCCCCCC(=O)O)C(=O)O)C(=O)O)C(=O)O)C(=O)O)C(=O)O)CSSC[C@@H](C(=O)O)NC(=O)CNC(=O)[C@H](CC(C)C)NC(=O)CNC(=O)[C@H](CO)NC1=O` [compound 0334]: the “hNPR2 0% HSA. [EC50% rel CNP]” value is given as 2.0%.

Values taken from patent US20240209028A1, “CNP COMPOUNDS” (priority 2022, published 2024).
